Measurements published in ChEMBL document CHEMBL1146051, “Novel inhibitors of hepatitis C NS3-NS4A serine protease derived from 2-aza-bicyclo[2.2.1]heptane-3-carboxylic acid” (Bioorg Med Chem Lett, 2006).

Experiment: Selectivity for HNE over HCV NS3 protease

SMILES: CN(C)C(=O)[C@@H](NC(=O)CNC(=O)C(=O)C(CC1CCC1)NC(=O)[C@@H]1C2CCC(C2)N1C(=O)[C@@H](NC(=O)NC(C)(C)C)C(C)(C)C)c1ccccc1 (stereo partly specified)
- Ratio Ki(app): 420
